Reference: article PMC11738990, “A small-molecule TNIK inhibitor targets fibrosis in preclinical and clinical models” (Nature Biotechnology, 2024)

Tests used:
[1] = test system: healthy subjects; settings: MAD any dose N=18
[2] = Day 28
[3] = test system: mice; settings: male mice, 180 mg/kg daily; ref Insilico Medicine, 2021; cited from earlier work
[4] = test system: healthy subjects; settings: in vivo

Question: Which results are given for `CC(C)n1cnc(-c2ccc(F)cc2)c1-c1nc(C(=O)Nc2ccc(N3CCN(C)CC3)cc2)c[nH]1` [INS018_055, 2-[4-(4-fluorophenyl)-1-(prop-2-yl)imidazol-5-yl]-N-[4-(4-methylhexahydropyrazin-1-yl)phenyl]-1H-imidazole-4-carboxamide]?
Answer: General disorders and administration site conditions [1]: 38.9%; Mouth ulceration [1]: 11.1%; Concentration, left lung tissue ([2]; 0.1 mg/mL): 16.18 ± 3.73 ng/g; Concentration, plasma ([2]; 0.1 mg/mL): 0.33 ± 0.12 ng/mL; Concentration, right lung tissue ([2]; 0.1 mg/mL): 17.37 ± 3.81 ng/g; Concentration, left lung tissue ([2]; 0.3 mg/mL): 77.55 ± 23.52 ng/g; Concentration, plasma ([2]; 0.3 mg/mL): 1.13 ± 0.37 ng/mL; Concentration, right lung tissue ([2]; 0.3 mg/mL): 78.35 ± 10.05 ng/g; Concentration, left lung tissue ([2]; 1.0 mg/mL): 301.47 ± 66.25 ng/g; Concentration, plasma ([2]; 1.0 mg/mL): 4.41 ± 0.80 ng/mL; Concentration, right lung tissue ([2]; 1.0 mg/mL): 340.47 ± 53.82 ng/g; Concentration, left lung tissue ([2]; 6.0 mg/mL): 1468.07 ± 278.61 ng/g; Concentration, plasma ([2]; 6.0 mg/mL): 30.40 ± 3.63 ng/mL; Concentration, right lung tissue ([2]; 6.0 mg/mL): 1490.45 ± 328.68 ng/g; reduction of haemoglobin concentration [3]: 16.8%; General disorders and administration site conditions [4]: 3 (10.0) [3]

Read-outs that look alike come from different tables or passages of the source.
